Test results published in paper PMC3967794 (Journal of medicinal chemistry, 2014).
Marks after values point to notes of the source that are not given here.

Assays:
washed human platelets = details: 10 µM, PAR4-AP
[1] = system: human primary donor islets; details: 10 µM, ELISA
[2] = in the presence of NADPH
[3] = in the presence of NADPH; Pharmaron
[4] = compared with 35

SMILES	inhibition of platelet aggregation (in words) (washed human platelets)	inhibition of AA/IONO-induced 12-HETE production [1]	microsomal stability T1/2 (rat) [2]	microsomal stability T1/2 (mouse) [3]	stability to glutathione (5 mM glutathione)	degradation in aqueous buffers (pH 2–9)	PBS buffer (pH 7.4) stability at 48 h (pH 7.4, 48 h)	rate of glucuronidation (in words) [4]
COc1cccc(CNc2ccc(S(=O)(=O)Nc3nc4ccccc4s3)cc2)c1O [Compound 35, N-(Benzo[d]thiazol-2-yl)-4-((2-hydroxy-3-methoxybenzyl)-amino)benzenesulfonamide]	did not inhibit platelet aggregation	significant inhibition	>30 (rat) min	>300 ^a (mouse) min	stable	no degradation	100%	
O=S(=O)(Nc1nc2ccccc2s1)c1ccc(NCc2cccc(Cl)c2O)cc1 [Compound 71]								did not change the rate of glucuronidation
